Experimental data reported in US7335186B2 (priority 1998, dated 2008).

Test: Nasal opioid solutions used as medicament in the device

Substance	effectiveness of nasal solution (30 mg per ml solutions)	effectiveness of nasal solution (solution of 50 μg per ml)
Dimorphine	effective	
Hydromorphine		effect
